# Source: patent US8563723B2, “Arylsulfonyl pyrazoline carboxamidine derivatives as 5-HT6 antagonists” (Abbott Healthcare Products, B.V., priority 2008, dated 2013)
# Amino acid sequences for entries named in this document (tags omitted).
# UniProt P50406, whole entry: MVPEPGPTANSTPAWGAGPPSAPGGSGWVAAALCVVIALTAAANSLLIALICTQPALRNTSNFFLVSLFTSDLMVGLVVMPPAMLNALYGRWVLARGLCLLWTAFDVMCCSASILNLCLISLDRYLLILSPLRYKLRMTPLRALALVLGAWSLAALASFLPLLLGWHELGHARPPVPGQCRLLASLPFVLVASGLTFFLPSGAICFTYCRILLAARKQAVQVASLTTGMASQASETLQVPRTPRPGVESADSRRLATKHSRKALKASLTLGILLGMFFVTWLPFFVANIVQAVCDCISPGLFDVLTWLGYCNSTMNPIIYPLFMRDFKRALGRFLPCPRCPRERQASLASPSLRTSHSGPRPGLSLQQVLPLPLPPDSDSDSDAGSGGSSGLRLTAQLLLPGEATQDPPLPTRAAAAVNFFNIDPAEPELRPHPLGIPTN
# Columns and labels:
# [1] = molecular target: T1, 5-HT6 receptor (Homo sapiens, UniProt P50406); experiment: In vitro affinity for human 5-HT6 receptors ([3H]-LSD binding, CHO cell membranes); design: host or cells: CHO/Gα16/mtAEQ/h5HT6-A1 cells; conditions: 5-HT6 pKi
# [2] = molecular target: T1, 5-HT6 receptor; experiment: In vitro functional activity ((ant)agonism) on human 5-HT6 receptors, CHO-human-5HT6-Aequorin assay; format: cell-based; design: host or cells: CHO AequoScreen recombinant cell line (expresses mitochondrial targeted apo-Aequorin); conditions: antagonism of 10^-8 M α-methylserotonin induced luminescence; comparison table Example 6; read-out: 5-HT6 pA2 (converted)
# Text: Human-5-HT6-Aequorin cells express mitochondrial targeted apo-Aequorin. Cells have to be loaded with coelanterazine, in order to reconstitute active Aequorin. After binding of agonists to the human 5-HT6 receptor the intracellular calcium concentration increases and binding of calcium to the apo-Aequorin/coelenterazine complex leads to an oxidation reaction of coelenterazine, which results in the production of apo-Aequorin, coelenteramide, CO2 and light (λmax 469 nm). This luminescent response is dependent on the agonist concentration. Luminescence is measured using the MicroBeta Jet (Perkin Elmer). Agonistic effects of compounds are expressed as pEC50. […] Compounds were tested at a 5 log concentration range, and 3 independent experiments were performed in duplicate.
smiles,measurement,setting,value
"CCN/C(=N\S(=O)(=O)c1ccccc1)N1CC(C)(C)C=N1 [Compound 175 from WO 2008/034863, reference compound]",Ki,[1],63.1 nM
same,Kb,[2],126 nM
